In US10016408B2, “Chemokine CXCR4 receptor modulators and uses related thereto” (EMORY UNIVERSITY, priority 2010, dated 2018) one finds CC50 data, which are given here for one substance.

The data set concerns PBM cells. The following applies: read-out: PBMC TC50; PBM cells run in parallel for cytotoxicity. How it is done:
To test efficacy of selected compounds, peripheral mononuclear cell assays are performed. Cells are infected for 6 days with live HIV IIIB virus and PBM cells are run in parallel for cytotoxicity testing, with or without selected agents. Efficacy of compounds as antagonists of the sdf-1 ligand to CXCR4 receptors was determined in I^125 labeled sdf-1 displacement assays from CXCR4-expressing CEM cells are performed.

Take Maraviroc: the CC50 is over 2000 nM.
